The values below come from patent publication US3985758A, “1,4-Dihydropyridine derivatives” (Yamanouchi Pharmaceutical Co., Ltd., priority 1973, dated 1976).

Molecules are shown by their SMILES. In brackets after ≈: the same amount, converted by molar mass. Read-outs that look alike come from different tables or passages of the source.

One assay relates to vertebral artery. The assay can be described thus: Direct vasodilating effect on vertebral artery, constant volume perfusion. The format is in vivo, mongrel dog. To be noted: intra-arterial, anesthetized dogs. From the text: Heparin (1000 μ/Kg, i.v.) was used as an anticoagulant. The methods for perfusion of each artery were as following: 1) For the vertebral artery, the arterial blood led from the left common carotid artery was collected by the tygon tubing and perfused by the Sigma-motor pump (Mippleport N.Y. T-8) into the right vertebral artery. 2) For the femoral artery, the arterial blood led from the proximal femoral artery was perfused by the Sigma-motor pump into the distal femoral artery. […] All drugs were given into a rubber tube connected close to the each arterial cannula by a microinjector (Jintan Terumo, NSN-100).

The subject of another assay is guinea-pig ileum. The assay can be described thus: Spasmolytic activity in isolated guinea-pig ileum (Magnus apparatus). Conditions: Cavia porcellus, ±S.E. As for the experimental part:
Methods: Isolated guinea-pig ileum was suspended in Tyrodes solution by use of Magnus apparatus and the movements of the muscle were recorded in a kymograph by an isotonic lever.

Assay [1] deals with vertebral and femoral blood flow. The experiment in a line: Vertebral and femoral blood flow in anesthetized dogs. It counts as in vivo, mongrel dog. Conditions: 0.01 mg/kg i.v. (0.01 or 0.03 mg/kg); significance vs SKF 24260.

As for `COC(=O)C1=C(C)NC(C)=C(C(=O)OC)C1c1ccccc1[N+](=O)[O-]` [Nifedipine, 4-(2'-nitrophenyl)-2,6-dimethyl-1,4-dihydropyridine-3,5-dicarboxylic acid dimethyl ester], in the assay with vertebral artery, the “Selectivity ratio (ED50 in femoral artery/ED50 in vertebral artery)” value is 0.50. The IC50 stood at 0.016 µg/mL (≈ 0.0462 µM) in the assay on guinea-pig ileum (read-out: Spasmolytic activity, 50% inhibition of contractile response, Acetylchloline 10^-7 g/ml); 0.0033 µg/mL (≈ 0.00953 µM) with guinea-pig ileum (read-out: Spasmolytic activity, 50% inhibition of contractile response, BaCl2 2×10^-4 g/ml); 0.055 µg/mL (≈ 0.159 µM) in the assay on guinea-pig ileum (read-out: Spasmolytic activity, 50% inhibition of contractile response, Histamine 10^-7 g/ml). Besides, the “Separation ratio (percent increase of vertebral blood flow / that of femoral blood flow)” value in assay [1] was determined as 1.14 ± 0.36.
